Results published in PMC10865350, “Investigating Polypharmacology through Targeting Known Human Neutrophil Elastase Inhibitors to Proteinase 3” (Journal of Chemical Information and Modeling, 2024).

By UniProt entry, the sequences of proteins in these tests, tags left out. Residues count along the entry.
UniProt P08246, 30-267 limits assumed: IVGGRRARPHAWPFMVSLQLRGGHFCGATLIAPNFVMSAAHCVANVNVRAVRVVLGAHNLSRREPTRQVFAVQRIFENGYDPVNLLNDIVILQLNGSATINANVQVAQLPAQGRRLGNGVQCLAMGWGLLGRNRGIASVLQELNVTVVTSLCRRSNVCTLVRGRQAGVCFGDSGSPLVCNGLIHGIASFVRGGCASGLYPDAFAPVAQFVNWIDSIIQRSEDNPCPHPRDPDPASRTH
UniProt P24158, 28-256 limits assumed: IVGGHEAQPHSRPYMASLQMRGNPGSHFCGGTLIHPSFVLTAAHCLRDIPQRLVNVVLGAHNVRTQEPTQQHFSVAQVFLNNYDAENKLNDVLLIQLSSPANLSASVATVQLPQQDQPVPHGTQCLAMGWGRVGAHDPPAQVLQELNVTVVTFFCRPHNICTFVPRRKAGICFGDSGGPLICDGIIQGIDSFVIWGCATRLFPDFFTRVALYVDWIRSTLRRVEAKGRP

Assays:
HNE = HNE (Homo sapiens, UniProt P08246); assay: Enzymatic activity assay, HNE (fluorogenic substrate MeOSuc-AAPV-AMC); assay type: biochemical; settings: read-out: IC50 HNE; racemates (±) and S-enantiomers, Table S11
Proteinase 3 (PR3) = Proteinase 3 (PR3) (Homo sapiens, UniProt P24158); assay: Enzymatic activity assay, PR3 (FRET peptide Abz-VADnVADYQ-EDDnp); assay type: biochemical; settings: read-out: IC50 PR3; racemates (±) and S-enantiomers, Table S11

Row | Compound | IC50 (HNE) | IC50 (Proteinase 3 (PR3))
1 | CNC(=O)Nc1nc2n(n1)[C@@H](c1ccc(C#N)cc1)C(C#N)=C(C)N2c1cccc(C(F)(F)F)c1 | 122 nM | 6300 nM
2 | CNc1nc2n(n1)[C@@H](c1ccc(C#N)cc1)C(C#N)=C(C)N2c1cccc(C(F)(F)F)c1 | 128 nM | 29300 nM
3 | COC(=O)Nc1nc2n(n1)[C@@H](c1ccc(C#N)cc1)C(C#N)=C(C)N2c1cccc(C(F)(F)F)c1 | 84.4 nM | 4760 nM
4 | CNC(=O)Nc1nc2n(n1)C(c1ccc(C#N)cc1)C(C#N)=C(C)N2c1cccc(C(F)(F)F)c1 (racemic) | 1.5 nM | 133 nM
5 | CNc1nc2n(n1)C(c1ccc(C#N)cc1)C(C#N)=C(C)N2c1cccc(C(F)(F)F)c1 (racemic) | 2.3 nM | 331 nM

Now from value to compound:

Row | IC50 (HNE) | IC50 (Proteinase 3 (PR3)) | Compound
6 | 798 nM | 19500 nM | CC1=C(C#N)[C@H](c2ccc(C#N)cc2)n2nc(NC(=O)C3CC3)nc2N1c1cccc(C(F)(F)F)c1
7 | 1.4 nM | 16.3 nM | CC1=C(C#N)C(c2ccc(C#N)cc2)n2nc(NC(=O)C3CC3)nc2N1c1cccc(C(F)(F)F)c1 (racemic)
8 | 1.4 nM | 36.3 nM | COC(=O)Nc1nc2n(n1)C(c1ccc(C#N)cc1)C(C#N)=C(C)N2c1cccc(C(F)(F)F)c1 (racemic)
